# Shown are results outside the selection of hits, which stands elsewhere. Results filed as inconclusive are left out. Activity calls are given as the source filed them. The call rests on the fitted dose curve; in most records, active means well fitted inhibition curve with a large enough effect; inconclusive means small, poorly fitted or top-dose-only effect; inactive means flat fitted curve, though single readings scatter.
# System: UISO
# Assay: qHTS assay to identify novel small-molecules to repurpose for Merkel cell carcinoma treatment (AID 1296009); further: nearly all actives have a fitted effect of over 60% in size
# Conditions: MCC and control cell lines, CellTiter-Glo viability, 72 h; at 46 µM (top of the series)
# Summary of the method: (§1)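 Luminescence from CellTiter-Glo, read 10 min after addition at room temperature, reported viability following a 72 hr, 37 degree celsius treatment with NPC or MIPE compounds in titration; values normalized to plate controls.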
# On the % scale 0 is the no-effect control and ±100 the full control effect.
row,SMILES,"activity change, negative = cytotoxicity"
1,Cc1nnc(NS(=O)(=O)c2ccc(N)cc2)s1,inactive: -4.52%
2,Oc1ccc(C2CNCCc3c2cc(O)c(O)c3Cl)cc1 (stereo not drawn),inactive: -23.3%
3,CN1C(CCl)Nc2cc(Cl)c(S(N)(=O)=O)cc2S1(=O)=O (stereo not drawn),inactive: -1.26%
4,Nc1nc2c(ncn2COCCO)c(=O)[nH]1,inactive: -3.04%
5,COc1cccc(OC)c1C(=O)N[C@@H]1C(=O)N2[C@@H]1SC(C)(C)[C@@H]2C(=O)O,inactive: 23.1%
6,CC(C)Oc1ccc2c(=O)c(-c3ccccc3)coc2c1,inactive: -3.49%
7,Cc1cccc(C)c1OCC(=O)N[C@@H](Cc1ccccc1)[C@@H](O)C[C@H](Cc1ccccc1)NC(=O)[C@H](C(C)C)N1CCCNC1=O,inactive: 4.69%
8,N[C@@H]1CONC1=O,inactive: 26.1%
9,Nc1[nH]c(=O)ncc1F,inactive: 14%
10,CCCCc1nc(Cl)c(CO)n1Cc1ccc(-c2ccccc2-c2nn[nH]n2)cc1,inactive: 6.96%

# System: WaGa
# Assay: as above
# Conditions: MCC and control cell lines, CellTiter-Glo viability, 72 h; at 46 µM (top of the series)
# Summary of the method: as §1
row,SMILES,"activity change, negative = cytotoxicity"
1,Cc1nnc(NS(=O)(=O)c2ccc(N)cc2)s1,inactive: -1.2%
2,CN1C(CCl)Nc2cc(Cl)c(S(N)(=O)=O)cc2S1(=O)=O (stereo not drawn),inactive: -0.0501%
3,Nc1nc2c(ncn2COCCO)c(=O)[nH]1,inactive: 11%
4,COc1cccc(OC)c1C(=O)N[C@@H]1C(=O)N2[C@@H]1SC(C)(C)[C@@H]2C(=O)O,inactive: 4.66%
5,CC(C)Oc1ccc2c(=O)c(-c3ccccc3)coc2c1,inactive: -7.88%
6,N[C@@H]1CONC1=O,inactive: -8.99%
7,Nc1[nH]c(=O)ncc1F,inactive: 8.51%
8,CCCCc1nc(Cl)c(CO)n1Cc1ccc(-c2ccccc2-c2nn[nH]n2)cc1,inactive: 14.9%

# From PubChem BioAssay (NCATS)
